In ChEMBL document CHEMBL3217567, “Differential activation of soluble guanylate cyclase by a series of aryl disulfanyl dinitrate esters” (Medchemcomm, 2014):

Tests used:
[1] = species on record: Rattus norvegicus; assay: Activation of Sprague-Dawley rat soluble guanylate cyclase after 10 mins in presence of cysteine relative to GTN
[2] = species on record: Rattus norvegicus; assay: Activation of Sprague-Dawley rat soluble guanylate cyclase after 10 mins in presence of cysteine

Which results are given for `O=[N+]([O-])OCC(CSSc1ccc([N+](=O)[O-])cc1)O[N+](=O)[O-]` (configuration not stated)?
Emax [1]: 116%; Activity [2]: Dose-dependent effect
